Reference: PubChem BioAssay (NCI)
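Assay format: 96-well plates, 48-hour exposure. Abbreviation: GI50, concentration required for 50% inhibition of growth. TGI denotes the concentration required for complete inhibition of growth.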

Legend:
Experiment in all cases: inhibition of tumour cell growth, NCI panel, 48 h
SNB-19 CNS = test system: SNB-19 CNS
RPMI-8226 leukemia = test system: RPMI-8226 leukemia
BT-549 breast = test system: BT-549 breast
SNB-75 CNS = test system: SNB-75 CNS
RXF 393 renal = test system: RXF 393 renal
EKVX NSCLC = test system: EKVX NSCLC
UACC-62 melanoma = test system: UACC-62 melanoma
HT29 colon = test system: HT29 colon
MDA-MB-231 breast = test system: MDA-MB-231 breast
MDA-MB-435 = test system: MDA-MB-435
SR leukemia = test system: SR leukemia
U251 CNS = test system: U251 CNS
K-562 leukemia = test system: K-562 leukemia
CCRF-CEM leukemia = test system: CCRF-CEM leukemia
HOP-92 NSCLC = test system: HOP-92 NSCLC
TK-10 renal = test system: TK-10 renal
HL-60(TB) leukemia = test system: HL-60(TB) leukemia
LOX IMVI melanoma = test system: LOX IMVI melanoma
KM12 colon = test system: KM12 colon
SK-MEL-5 melanoma = test system: SK-MEL-5 melanoma
HOP-62 NSCLC = test system: HOP-62 NSCLC
SK-MEL-28 melanoma = test system: SK-MEL-28 melanoma
PC-3 prostate = test system: PC-3 prostate
MDA-N = test system: MDA-N
MCF7 breast = test system: MCF7 breast
SF-295 CNS = test system: SF-295 CNS
ACHN renal = test system: ACHN renal
OVCAR-8 ovarian = test system: OVCAR-8 ovarian
MALME-3M melanoma = test system: MALME-3M melanoma

**Q.** How did the GI50 (SNB-19 CNS) turn out when `Nc1nonc1-c1no[n+]([O-])c1-c1nonc1N` was run?
**A.** 22.5 µM

**Q.** And the TGI (SNB-19 CNS)?
**A.** 76.4 µM

**Q.** And the GI50 (RPMI-8226 leukemia)?
**A.** 25.6 µM

**Q.** And the TGI (RPMI-8226 leukemia)?
**A.** 90 µM

**Q.** And the GI50 (BT-549 breast)?
**A.** 30.8 µM

**Q.** And the TGI (BT-549 breast)?
**A.** 73.4 µM

**Q.** And the GI50 (SNB-75 CNS)?
**A.** 14.5 µM

**Q.** And the TGI (SNB-75 CNS)?
**A.** 28.9 µM

**Q.** And the GI50 (RXF 393 renal)?
**A.** 16.7 µM

**Q.** What about the TGI (RXF 393 renal) of the same molecule?
**A.** 37.2 µM

**Q.** And the GI50 (EKVX NSCLC)?
**A.** 14.1 µM

**Q.** What about the TGI (EKVX NSCLC) of the same molecule?
**A.** 30.6 µM

**Q.** And the GI50 (UACC-62 melanoma)?
**A.** 10.8 µM

**Q.** And the TGI (UACC-62 melanoma)?
**A.** 15.7 µM

**Q.** And the GI50 (HT29 colon)?
**A.** 10.9 µM

**Q.** And the TGI (HT29 colon)?
**A.** 27.6 µM

**Q.** What about the GI50 (MDA-MB-231 breast) of the same molecule?
**A.** 36 µM

**Q.** And the TGI (MDA-MB-231 breast)?
**A.** 61.6 µM

**Q.** What about the GI50 (MDA-MB-435) of the same molecule?
**A.** 7.8 µM

**Q.** And the TGI (MDA-MB-435)?
**A.** 33.4 µM

**Q.** What about the GI50 (SR leukemia) of the same molecule?
**A.** 9.34 µM

**Q.** And the TGI (SR leukemia)?
**A.** > 100 µM

**Q.** And the GI50 (U251 CNS)?
**A.** 18.2 µM

**Q.** And the TGI (U251 CNS)?
**A.** 47.9 µM

**Q.** What about the GI50 (K-562 leukemia) of the same molecule?
**A.** 4.52 µM

**Q.** What about the TGI (K-562 leukemia) of the same molecule?
**A.** 28.2 µM

**Q.** And the GI50 (CCRF-CEM leukemia)?
**A.** 1710 nM

**Q.** What about the TGI (CCRF-CEM leukemia) of the same molecule?
**A.** 8.04 µM

**Q.** What about the GI50 (HOP-92 NSCLC) of the same molecule?
**A.** 11.2 µM

**Q.** And the TGI (HOP-92 NSCLC)?
**A.** 52.3 µM

**Q.** What about the GI50 (TK-10 renal) of the same molecule?
**A.** 27 µM

**Q.** What about the TGI (TK-10 renal) of the same molecule?
**A.** 70.3 µM

**Q.** And the GI50 (HL-60(TB) leukemia)?
**A.** 2220 nM

**Q.** What about the TGI (HL-60(TB) leukemia) of the same molecule?
**A.** 6.08 µM

**Q.** And the GI50 (LOX IMVI melanoma)?
**A.** 10.8 µM

**Q.** What about the TGI (LOX IMVI melanoma) of the same molecule?
**A.** 44.9 µM

**Q.** And the GI50 (KM12 colon)?
**A.** 14.5 µM

**Q.** And the TGI (KM12 colon)?
**A.** 30.2 µM

**Q.** What about the GI50 (SK-MEL-5 melanoma) of the same molecule?
**A.** 12 µM

**Q.** What about the TGI (SK-MEL-5 melanoma) of the same molecule?
**A.** 28.9 µM

**Q.** And the GI50 (HOP-62 NSCLC)?
**A.** 20.3 µM

**Q.** What about the TGI (HOP-62 NSCLC) of the same molecule?
**A.** 44.6 µM

**Q.** What about the GI50 (SK-MEL-28 melanoma) of the same molecule?
**A.** 14.7 µM

**Q.** What about the TGI (SK-MEL-28 melanoma) of the same molecule?
**A.** 31.3 µM

**Q.** What about the GI50 (PC-3 prostate) of the same molecule?
**A.** 14 µM

**Q.** And the TGI (PC-3 prostate)?
**A.** 28.5 µM

**Q.** What about the GI50 (MDA-N) of the same molecule?
**A.** 17.1 µM

**Q.** What about the TGI (MDA-N) of the same molecule?
**A.** > 100 µM

**Q.** What about the GI50 (MCF7 breast) of the same molecule?
**A.** 13.5 µM

**Q.** And the TGI (MCF7 breast)?
**A.** 48.8 µM

**Q.** And the GI50 (SF-295 CNS)?
**A.** 16.6 µM

**Q.** And the TGI (SF-295 CNS)?
**A.** 33 µM

**Q.** What about the GI50 (ACHN renal) of the same molecule?
**A.** 16.4 µM

**Q.** What about the TGI (ACHN renal) of the same molecule?
**A.** 44.1 µM

**Q.** What about the GI50 (OVCAR-8 ovarian) of the same molecule?
**A.** 14.4 µM

**Q.** What about the TGI (OVCAR-8 ovarian) of the same molecule?
**A.** 63.4 µM

**Q.** And the GI50 (MALME-3M melanoma)?
**A.** 4.88 µM

**Q.** And the TGI (MALME-3M melanoma)?
**A.** 20.4 µM
